Sequences of proteins named here, by UniProt entry; tags and fusion partners are left off.
UniProt P47745, whole entry: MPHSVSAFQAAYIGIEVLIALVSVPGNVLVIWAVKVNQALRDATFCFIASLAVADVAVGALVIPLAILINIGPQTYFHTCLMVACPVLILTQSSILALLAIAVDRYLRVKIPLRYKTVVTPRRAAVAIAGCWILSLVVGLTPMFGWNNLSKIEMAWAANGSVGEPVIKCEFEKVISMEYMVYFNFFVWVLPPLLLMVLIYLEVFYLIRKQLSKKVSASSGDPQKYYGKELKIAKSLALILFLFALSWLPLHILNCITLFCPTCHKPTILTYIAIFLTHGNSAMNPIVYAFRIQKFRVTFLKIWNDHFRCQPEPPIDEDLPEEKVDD

In ChEMBL document CHEMBL1126169, “8-Polycycloalkyl-1,3-dipropylxanthines as potent and selective antagonists for A1-adenosine receptors” (J Med Chem, 1992):

Target: Adenosine receptor A1 (Cavia porcellus, UniProt P47745)
Assay: Binding affinity against adenosine A1 receptor using N6-[3H]cyclohexyladenosine as radioligand in guinea pig forebrain membranes
Format: cell membranes, Brain membranes

Ki: 5.4 µM
SMILES: CCCn1c(=O)c2[nH]c(-c3cnsn3)nc2n(CCC)c1=O
